These results are taken from BindingDB's records for 24076173.

Chains of the proteins cited; added tags and fusions are not shown. Residues count along the entry.
UniProt P22303, 32-614 limits assumed: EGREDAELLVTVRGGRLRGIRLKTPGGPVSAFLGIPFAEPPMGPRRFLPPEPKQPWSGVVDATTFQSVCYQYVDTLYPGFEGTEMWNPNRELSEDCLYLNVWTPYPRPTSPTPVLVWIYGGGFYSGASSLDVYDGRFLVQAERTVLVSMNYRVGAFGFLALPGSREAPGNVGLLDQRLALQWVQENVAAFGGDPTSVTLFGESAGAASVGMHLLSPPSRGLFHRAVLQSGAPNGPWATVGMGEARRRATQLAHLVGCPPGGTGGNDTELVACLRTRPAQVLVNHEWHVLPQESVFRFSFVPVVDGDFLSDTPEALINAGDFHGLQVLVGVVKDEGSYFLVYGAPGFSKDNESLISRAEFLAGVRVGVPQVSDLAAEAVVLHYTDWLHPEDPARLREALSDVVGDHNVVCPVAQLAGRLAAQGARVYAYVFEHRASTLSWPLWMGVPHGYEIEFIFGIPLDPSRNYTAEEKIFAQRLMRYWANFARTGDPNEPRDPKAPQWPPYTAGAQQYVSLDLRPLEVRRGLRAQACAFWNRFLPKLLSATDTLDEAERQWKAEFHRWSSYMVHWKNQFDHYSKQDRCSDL

Usually IC50 stands for the point on the concentration scale where inhibition reaches its midpoint.

The target of this test is Acetylcholinesterase (Homo sapiens, UniProt P22303). Put plainly: Reversible inhibition of human recombinant AChE using acetylthiocholine iodide as substrate measured after 2 hrs by Ellmans method. For orientation: DTNB colorimetry detects thiols as they appear.

Structures are written as SMILES.

`COc1c(F)ccc[n+]1C`: the IC50 turned out to be 110 µM. The figure for `COc1ccc(C(F)(F)F)c[n+]1CCCCCO` is 131 µM.
